The record followed here is US20240216401A1, “COMBINATION THERAPY BY USING AKR1C3-ACTIVATED COMPOUND WITH IMMUNE CHECKPOINT INHIBITOR” (OBI Pharma, Inc., priority 2021, published 2024).

Holding throughout (assay type): in vivo, Mus musculus
Data set [1] can be described thus: Example 1: body weight and mortality of HepG2 tumor bearing humanized mice. Particulars: OBI-3424 1 mg/kg IV, antibody 10 mg/kg IP (20 from Day 15). The method, then: Each group contains five mice. The human hepatocellular carcinoma cell line HepG2 were subcutaneously inoculated to the advanced immune deficiency mice. Total of 30 mice were included in this study.
3.1. […] The injection was performed using insulin syringe with the dosage of 10 mg/kg (Dosage of injection was changed to 20 mg/kg from Day 15) and injection volume of 10 mL/kg. […] The reference item was administered for G1. The procedure followed the standards of sample administration.
3.2. The test item anti-hPD-L1 antibody or reference items were intraperitoneally injected to the mice on Day 8 after the inoculation of tumor cells. The injection was performed using insulin syringe with the dosage of 10 mg/kg (Dosage of injection was changed to 20 mg/kg from Day 15) and injection volume of 10 mL/kg. The test item anti-hPD-L1 was continuously administered on Day 8, 11, 15, 18, 22, 25, 29 and 32 for G4 and G6. The reference item was administered for G1. The procedure followed the standards of sample administration.
3.3. […] The injection was performed using insulin syringe with the dosage of 1 mg/kg and injection volume of 5 mL/kg. […] The reference item was administered for G1. The procedure followed the standards of sample administration.
The measurement was performed from the next day of the inoculation. The animal body weights were measured and recorded twice per week.

In data set [2] the test system is CTL cells (CD45^+CD8^+ T cells) in tumor-infiltrating lymphocytes. As to the kind of experiment: Example 2: flow cytometry, percentage of CTL cells in TILs. Particulars: G3: 1 mg/kg; individual mice. The protocol: (§1) Mice were sacrificed by CO2 euthanasia at the end of the study duration, and the connective tissue around tumor was resected. The tumor samples were then weighed and cut equally into three sections if the tumor weight over 400 mg. The tumor tissue was prepared for the isolation of tumor-infiltrating lymphocytes (TILs). The rest of one section was fixed in 10% formaldehyde and embedded in paraffin; the other was stored at a temperature below −70° C.
(§2) The tumor samples were dissected into smaller fragments using scalpels and then digested with a cocktail of collagenase, DNase I, and Hyaluronidase (Collagenase #C5138, DNase I #D5025, Hyaluronidase #H6254, SigmaAldrich) for at least 2 hours.
(§3) Cells were stained with the fluorescently conjugated surface antibodies and incubated for 30 minutes at 4° C., and then resuspended in staining buffer for flow cytometric analysis. Flow cytometry was done using a Navios EX Flow Cytometer (Beckman Coulter). Data were analyzed using the Kaluza Analysis Software (Beckman Coulter).

Data set [3] relates to T helper (TH) cells (CD45^+CD4^+ T cells) in tumor-infiltrating lymphocytes. Briefly: Example 2: flow cytometry, percentage of TH cells in TILs. To be noted: G2: OBI-3424 (0.3 mg/kg), individual animals. The method, then:
as §1, §2, §3
For orientation: In flow cytometry, cells or beads pass a laser one at a time.

As to `C[C@H](OP(=O)(N1CC1)N1CC1)c1ccc([N+](=O)[O-])c(Oc2cccc(C(=O)N(C)C)c2)c1` [OBI-3424, (S)-1-(3-(3-N,N-dimethylaminocarbonyl)phenoxyl-4-mtrophenyl)-1-ethyl-N,N′-bis(ethylene)phosphoramidate], the “Body Weight, Mean” value in data set [1] (Day 0, group mean) is on record as 23.42 g; in data set [1] (Day 1, group mean), 22.79 g; in data set [1] (Day 7, group mean), 23.24 g; in data set [1] (Day 28, group mean) it was 23.46 g; in data set [1] (Day 35, group mean), 23.70 g. The “CTL cells (CD45^+CD8^+) Total %” value in data set [2] was 43.72%. Also, the “Granzyme B^+ CTL cells (CD45^+ CD8^+GrB+) Total %” value in data set [2] was 42.67%. Also, the “CD69^+ TH cells (CD45^+CD4^+CD69^+) TH Gated %” value in data set [3] is on record as 75.09%.
